The results in this text go back to patent US20220056087A1.

The target in the assay is CD32a (THP-1). Description: flow cytometry on THP-1 cells; blocked: anti-FcγR antibody to CD32a (PE); without blocker 54863.

Turning to “G001 (native IgG1 Fc) (from UniProt P01857 99-330)”, the number printed in the histogram (unnamed; fluorescence of the CD32a stain) at 10ug/mL was determined as 51400, the number printed in the histogram (unnamed; fluorescence of the CD32a stain) at 100ug/mL is 57200 and the number printed in the histogram (unnamed; fluorescence of the CD32a stain) at 1000ug/mL worked out at 44600.
